Values of other authors in patent US20100063116A1 (priority 2006, published 2010).

What was measured:
[1] = immediate release tablets, oral

- solubility in dichloromethane: practically insoluble
- time to peak concentrations [1]: approximately 2 hours
SMILES: CCCN[C@H]1CCc2nc(N)sc2C1.Cl.Cl.O [Pramipexole dihydrochloride, (S)-2-amino-4,5,6,7-tetrahydro-6-(propylamino)benzothiazole dihydrochloride monohydrate]
